Source: ChEMBL document CHEMBL5729424, “Tricyclic heterocycles as BET protein inhibitors” (2022)

Target: Bromodomain-containing protein 4 (Homo sapiens, UniProt O60885)
Assay: Inhibitors were first serially diluted in DMSO and added to the plate wells before the addition of other reaction components. […] The assays were carried out at room temperature in the assay buffer (50 mM Tris-HCl, pH 7.5, 0.01% Tween-20, 0.01% BSA, 5 mM DTT), containing 50 nM Biotin-labeled tetra-acetylated histone H4 peptide (H4Ac4) and BRD4-BD1 or BRD4-BD2 protein at concentration less than 1 nM. […] After plate sealing, the plate was incubated in the dark at room temperature for 75 min. before reading on a PHERAstar FS plate reader (BMG Labtech). IC50 determination was performed by fitting the curve of percent control activity versus the log of the inhibitor concentration using the GraphPad Prism 5.0 software.

SMILES: Cc1noc(C)c1-c1ccc2nc(N3CC[C@H](O)C3)n3c2c1OCC3c1cccnc1 (stereo partly specified)
- IC50: in the range around 550 nM
